The values that follow come from US20230148588A1, “METHODS, COMPOSITIONS, AND SYSTEMS FOR ENHANCING EX-VIVO ORGAN PERFUSION” (University Health Network, priority 2020, published 2023).

For test [1], the system named is human pulmonary microvascular endothelial cells (HPMEC). The test can be described thus: Basic cellular function of cells exposed to Steen solution and its modifications (IncuCyte Live Cell Analysis). It is filed as cell-based. Particulars: different concentrations of Albumin (1, 2, 4, 7%) and Dextran 40 (5, 25, 50 g/L) in Steen solution. The source says: (§1) Methods: Human pulmonary microvascular endothelial cells (HPMEC) and human lung epithelial cells (BEAS-2B) were used to determine the effects of Steen solution components on basic cellular function. Cell confluence, apoptosis and migration were visualized and quantified by IncuCyte® Live Cell Analysis System in real-time. A simulated EVLP cell culture model was established by replacing regular culture medium with cold lung preservation solution and followed by “perfusion” with normothermic Steen solution or its modifications. Cell apoptosis was quantified. Porcine lung EVLP was performed using Steen solution with added nutrients.
(§2) Steen solution contains phosphate and bicarbonate buffer, glucose (as an energy source), a high concentration of albumin (7%, to maintain high colloidal osmolarity), and a low dose of Dextran 40 (5 g/L, to improve microcirculation).
(§3) The effects of glutamine in Steen solution on mitochondrial respiration and glycolytic function were examined using a Seahorse XFe analyzer.

Test [2] deals with human lung epithelial cells (BEAS-2B). The description is as above. It counts as cell-based. Conditions: different concentrations of Albumin (1, 2, 4, 7%) and Dextran 40 (5, 25, 50 g/L) in Steen solution.
From the text: as §1, §2, §3

Regarding “Albumin: colloid component of Steen solution, tested at 1, 2, 4, 7%”, the “cell confluence, apoptosis and migration” value in test [1] and in test [2] was “no major differences” in each case.
